The record followed here is patent US6630464B1, “Cyclin dependent kinase (CDK)4 inhibitors and their use for treating cancer” (The United States of America as represented by the …, priority 1997, dated 2003).

Chains of the proteins cited; added tags and fusions are not shown. Lines headed by an entry give the natural chain unless they say otherwise; changes in a name come on top.
UniProt P06493, whole entry: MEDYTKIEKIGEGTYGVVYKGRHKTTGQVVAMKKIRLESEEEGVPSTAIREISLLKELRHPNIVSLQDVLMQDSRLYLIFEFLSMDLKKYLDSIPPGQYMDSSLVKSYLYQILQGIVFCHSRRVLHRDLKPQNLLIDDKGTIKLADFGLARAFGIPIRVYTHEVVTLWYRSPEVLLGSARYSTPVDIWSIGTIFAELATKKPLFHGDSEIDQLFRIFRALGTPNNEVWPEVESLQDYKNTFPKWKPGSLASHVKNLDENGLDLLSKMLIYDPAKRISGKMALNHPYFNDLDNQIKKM
UniProt P11802, whole entry: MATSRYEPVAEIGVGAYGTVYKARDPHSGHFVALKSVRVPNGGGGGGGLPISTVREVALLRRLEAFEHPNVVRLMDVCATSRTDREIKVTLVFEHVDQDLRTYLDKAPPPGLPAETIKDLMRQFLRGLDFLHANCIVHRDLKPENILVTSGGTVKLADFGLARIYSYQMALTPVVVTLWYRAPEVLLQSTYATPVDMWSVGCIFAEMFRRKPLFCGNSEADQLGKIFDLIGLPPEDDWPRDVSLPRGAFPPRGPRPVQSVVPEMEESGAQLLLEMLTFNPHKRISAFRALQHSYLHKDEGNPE
UniProt P20248, whole entry partner: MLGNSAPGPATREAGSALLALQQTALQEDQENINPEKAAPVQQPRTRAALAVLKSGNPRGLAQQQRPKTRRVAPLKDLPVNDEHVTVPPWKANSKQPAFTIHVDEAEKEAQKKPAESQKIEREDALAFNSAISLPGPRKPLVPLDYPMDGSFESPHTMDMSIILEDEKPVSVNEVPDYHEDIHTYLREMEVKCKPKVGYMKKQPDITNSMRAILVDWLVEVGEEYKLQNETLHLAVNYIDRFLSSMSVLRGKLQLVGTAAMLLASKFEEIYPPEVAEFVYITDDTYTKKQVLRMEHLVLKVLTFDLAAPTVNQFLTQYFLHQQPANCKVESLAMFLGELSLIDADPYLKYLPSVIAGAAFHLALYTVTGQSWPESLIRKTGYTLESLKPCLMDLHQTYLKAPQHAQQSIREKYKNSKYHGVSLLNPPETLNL
UniProt P24385, whole entry partner: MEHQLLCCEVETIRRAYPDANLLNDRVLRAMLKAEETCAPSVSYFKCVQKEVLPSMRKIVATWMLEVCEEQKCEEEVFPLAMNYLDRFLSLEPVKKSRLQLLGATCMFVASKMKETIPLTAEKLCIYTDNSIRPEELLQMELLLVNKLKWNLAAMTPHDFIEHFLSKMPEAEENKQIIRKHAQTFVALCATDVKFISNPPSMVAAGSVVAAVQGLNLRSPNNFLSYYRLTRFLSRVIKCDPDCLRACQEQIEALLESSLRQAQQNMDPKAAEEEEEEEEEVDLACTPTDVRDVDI

SMILES strings stand for the structures. pIC50: −log10 of the molar value.

The target of one assay is CDC2:cyclin A (Homo sapiens, UniProt P06493). Briefly: In vitro kinase assay, CDC2:cyclin A. The assay is classed as biochemical.
The next assay concerns the target CDK2:cyclin A (Homo sapiens, UniProt P24941). Briefly: In vitro kinase assay, CDK2:cyclin A. The assay is classed as biochemical. Conditions: concentrations up to 100 μM.
Another assay has as its target CDK4:cyclin D1 (Homo sapiens, UniProt P11802). Briefly: In vitro kinase assay, CDK4:cyclin D1, GST-Rb substrate.
The next assay addresses CDK2:cyclin E (Homo sapiens, UniProt P24941). Briefly: In vitro kinase assay, CDK2:cyclin E. To be noted: concentrations up to 100 μM. The assay is classed as biochemical.

As for `CCN1C(Cl)=NS(=O)(=O)c2ccccc21`, at CDC2:cyclin A ((IC50 CDC2)/(IC50 CDK4)), the “Ratio CDC2A:CDK4” value was above 58.8. Moreover, on CDC2:cyclin A (concentrations up to 100 μM), the “CDC2 kinase inhibitory activity” value is reported as “no CDC2 or CDK2 kinase inhibitory activity”. For the same compound, the figures for the pIC50 on CDC2:cyclin A (read-out: IC50 value CDC2/A) and at CDK4:cyclin D1 (read-out: IC50 value CDK4/D1) were below 4.00 and 5.77, respectively. The “CDK2 kinase inhibitory activity (CDK2:cyclin A)” value on CDK2:cyclin A is listed as “no CDC2 or CDK2 kinase inhibitory activity”. The “CDK4 kinase inhibitory potency compared with parent compounds” value on CDK4:cyclin D1 (parents 3-ATA and Compound 6) was “more potent CDK4 kinase inhibitors than the parent compounds”. In addition, the “CDK2 kinase inhibitory activity (CDK2:cyclin E)” value on CDK2:cyclin E is reported as “no CDC2 or CDK2 kinase inhibitory activity”.
